In US12371675B2, “Process and microorganism for synthesis of adipic acid from carboxylic acids” (THE GOVERNING COUNCIL OF THE UNIVERSITY OF TORONTO, priority 2015, dated 2025):

B1: SAV2583: aminotransferase (AT) from Streptomyces avermitilis (protein)
chain: MSALPQERRVVTAIPGPKSQELQARRTAVVAAGVGSVLPVFTTRAGGGIIEDVDGNRLIDFGSGIAVTSVGASAEAVVRRASAQLQDFTHTCFMVTPYEGYVAVAEALAELTPGDHAKKSALFNSGAEAVENAVKIARAYTKRQAVVVFDHGYHGRTNLTMALTAKNMPYKNGFGPFAPEVYRVPVAYGYRWLTGPENAGAEASAQAIDMINKQIGADNVAAIIIEPVLGEGGFIEPAKGFLPAISKFAKDNGIVFVADEIQSGFCRTGQWFACEDEGIVPDLITTAKGIAGGLPLAAVTGRAEIMDAAHAGGLGGTYGGNPVACAGALGAIETMKELDLNAKAKNIEAVMKARLGAMAEKFDIIGDVRGRGGMIAIELVKDRDTKEPNPEAAGALAKACHQEGLLVLTCGTYGNVLRFLPPLVIGEDLLNEGLDIIEQAFSRI
B2: gabT: aminotransferase (AT) from Escherichia coli (protein)
chain: MNSNKELMQRRSQAIPRGVGQIHPIFADRAENCRVWDVEGREYLDFAGGIAVLNTGHLHPKVVAAVEAQLKKLSHTCFQVLAYEPYLELCEIMNQKVPGDFAKKTLLVTTGSEAVENAVKIARAATKRSGTIAFSGAYHGRTHYTLALTGKVNPYSAGMGLMPGHVYRALYPCPLHGISEDDAIASIHRIFKNDAAPEDIAAIVIEPVQGEGGFYASSPAFMQRLRALCDEHGIMLIADEVQSGAGRTGTLFAMEQMGVAPDLTTFAKSIAGGFPLAGVTGRAEVMDAVAPGGLGGTYAGNPIACVAALEVLKVFEQENLLQKANDLGQKLKDGLLAIAEKHPEIGDVRGLGAMIAIELFEDGDHNKPDAKLTAEIVARARDKGLILLSCGPYYNVLRILVPLTIEDAQIRQGLEIISQCFDEAKQ

Assay: In vitro conversion of adipic acid to 6-aminocaproic acid by MAB_4714c coupled with ATs
Conditions: 20 mM adipic acid, 12 h, AT coupled with MAB_4714c, glutamate as amino-donor

Molecule | In vitro conversion efficiency (%) to 6-aminocaproic acid [%]
B1 | 19.5 ± 0.4
B2 | 21.3 ± 0.8
